The record followed here is the kinase profiling compilation of Christmann-Franck et al. (2016).

Protein sequences, listed by entry. Tags and fused reporters are not part of them.
UniProt P11362, whole entry, looked up: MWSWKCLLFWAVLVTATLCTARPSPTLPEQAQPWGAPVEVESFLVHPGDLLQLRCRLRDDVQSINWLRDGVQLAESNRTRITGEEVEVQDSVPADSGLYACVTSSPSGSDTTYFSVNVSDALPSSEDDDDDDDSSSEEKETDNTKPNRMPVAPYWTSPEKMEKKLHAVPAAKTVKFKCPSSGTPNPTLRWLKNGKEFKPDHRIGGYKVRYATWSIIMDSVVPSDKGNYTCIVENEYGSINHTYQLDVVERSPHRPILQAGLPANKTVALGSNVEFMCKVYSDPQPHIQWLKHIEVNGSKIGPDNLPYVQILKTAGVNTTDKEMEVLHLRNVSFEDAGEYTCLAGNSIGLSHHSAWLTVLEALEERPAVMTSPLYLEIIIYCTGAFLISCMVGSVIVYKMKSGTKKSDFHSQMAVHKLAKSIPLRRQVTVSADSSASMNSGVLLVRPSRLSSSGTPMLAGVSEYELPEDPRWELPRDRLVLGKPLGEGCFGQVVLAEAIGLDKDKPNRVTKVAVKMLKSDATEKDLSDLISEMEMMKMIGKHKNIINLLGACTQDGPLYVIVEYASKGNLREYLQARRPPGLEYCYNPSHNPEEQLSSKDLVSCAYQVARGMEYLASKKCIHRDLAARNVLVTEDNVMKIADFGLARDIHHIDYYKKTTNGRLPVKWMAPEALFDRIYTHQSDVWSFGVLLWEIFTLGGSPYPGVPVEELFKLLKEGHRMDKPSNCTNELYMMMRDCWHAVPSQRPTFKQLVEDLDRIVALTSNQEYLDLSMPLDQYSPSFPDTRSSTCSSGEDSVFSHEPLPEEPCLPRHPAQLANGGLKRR

This experiment addresses FGFR1 (human) (UniProt P11362). As to conditions: compound 10.0 µM.

Structures are written as SMILES.

Regarding `CO[C@@H]1[C@H](N(C)C(=O)c2ccccc2)C[C@H]2O[C@]1(C)n1c3ccccc3c3c4c(c5c6ccccc6n2c5c31)C(=O)NC4`, the inhibition (usually the relative decrease from the control value, in per cent) was found to be 69%.
